Assay results published in patent publication US6486167B1, “Heterocyclic cytotoxic agents” (Rutgers, The State University of New Jersey, priority 1997, dated 2002).

Legend:
[1] = system: camptothecin-resistant variant cell line, CPT-K5; assay: MTT-microtiter plate tetrazolinium cytotoxicity assay (Test B), CPT-K5; assay type: cell-based, human
Protocol: (§1) The cytotoxicity was determined using the MTT-microtiter plate tetrazolinium cytotoxicity assay (MTA) (See Chen A. Y. et al. Cancer Res. 1993, 53, 1332; Mosmann, T. J., J. Immunol. Methods 1983, 65, 55; and Carmichael, J. et al. Cancer Res. 1987, 47, 936). The human lymphoblast RPMI 8402 and its camptothecin-resistant variant cell line, CPT-K5 were provided by Dr. Toshiwo Andoh (Aichi Cancer Center Research Institute, Nagoya, Japan) (see Andoh, T.; Okada, K. “Drug resistance mechanisms of topoisomerase I drugs,” Adv. in Pharmacology 1994, 29B, 93. The cytotoxicity assay was performed using 96-well microtiter plates. Cells were grown in suspension at 37° C. in 5% CO2 and maintained by regular passage in RPMI medium supplemented with 10% heat-inactivated fetal bovine serum, L-glutamine (2 mM), penicillin (100 U/mL), and streptomycin (0.1 mg/mL). For determination of IC50, cells were exposed continuously with varying concentrations of drug and MTT assays were performed at the end of the fourth day.

[2] = system: human lymphoblast RPMI 8402; assay: MTT-microtiter plate tetrazolinium cytotoxicity assay (Test B), RPMI 8402; assay type: cell-based
Protocol: as §1

For “2,3,8,9-Dimethylenedioxybenzo[i]phenanthridine [Compound 29]”, which IC50 [1] is on record?
The IC50 was 20 µM.

And the IC50 [2]?
The IC50 was 15 µM.
